# Tests used:
# Sequences of proteins named here, by UniProt entry; tags and fusion partners are left off.
# UniProt P35372, whole entry: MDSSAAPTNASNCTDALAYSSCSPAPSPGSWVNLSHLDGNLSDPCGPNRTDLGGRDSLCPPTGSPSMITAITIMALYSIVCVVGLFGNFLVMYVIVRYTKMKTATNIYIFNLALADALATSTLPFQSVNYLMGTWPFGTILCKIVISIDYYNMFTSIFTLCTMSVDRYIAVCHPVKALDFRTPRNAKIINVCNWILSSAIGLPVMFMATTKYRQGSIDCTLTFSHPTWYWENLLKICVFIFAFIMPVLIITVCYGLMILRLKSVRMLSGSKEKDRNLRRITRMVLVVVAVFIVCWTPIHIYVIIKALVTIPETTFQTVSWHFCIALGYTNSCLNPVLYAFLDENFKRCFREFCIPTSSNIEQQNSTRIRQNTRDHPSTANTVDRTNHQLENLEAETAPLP
# human MOR [1] = molecular target: T1, human MOR (Homo sapiens, UniProt P35372); format: cell-based
# T1 construct: FLAG (N); expressed in transfected cells; host or cells: HEK 293
# human MOR [2] = molecular target: T1, human MOR; format: biochemical
substance,measurement,setting,value
"D-Phe-Cys-Tyr-D-Trp-Arg-Thr-Pen-Thr-Nh2 [CTAP, reference compound]",effect on forskolin stimulated cAMP levels,human MOR [1],no effect
same,blockade of inverse-agonistic effects of β-CNA,human MOR [2],blocked
same,effect on basal 35S-GTPγS binding activity,human MOR [2],no significant effect

# — patent publication US6713488B2 (priority 2000, dated 2004)
